Results taken from publication PMC3929448.

Target: human insulin receptor, B isoform, expressed on CHO cells (CHO-hINSR-B) (human) (UniProt P06213)
Experiment: flow cytometry on cells

Substance: biotinylated human insulin (ligand)
- EC50: 125 nM
